The target in experiment [1] is hSERT Y95azF (Homo sapiens, UniProt P31645).
The target of experiment [2] is WT hSERT (Homo sapiens, UniProt P31645). Briefly: Ultraviolet-induced photocrosslinking of [3H]labelled drug in HEK293T cells. Particulars: 100 nM [3H]drug, 2 h 4 °C, UV 15 min.

Protein sequences, listed by entry. Tags and fused reporters are not part of them.
UniProt P31645, whole entry: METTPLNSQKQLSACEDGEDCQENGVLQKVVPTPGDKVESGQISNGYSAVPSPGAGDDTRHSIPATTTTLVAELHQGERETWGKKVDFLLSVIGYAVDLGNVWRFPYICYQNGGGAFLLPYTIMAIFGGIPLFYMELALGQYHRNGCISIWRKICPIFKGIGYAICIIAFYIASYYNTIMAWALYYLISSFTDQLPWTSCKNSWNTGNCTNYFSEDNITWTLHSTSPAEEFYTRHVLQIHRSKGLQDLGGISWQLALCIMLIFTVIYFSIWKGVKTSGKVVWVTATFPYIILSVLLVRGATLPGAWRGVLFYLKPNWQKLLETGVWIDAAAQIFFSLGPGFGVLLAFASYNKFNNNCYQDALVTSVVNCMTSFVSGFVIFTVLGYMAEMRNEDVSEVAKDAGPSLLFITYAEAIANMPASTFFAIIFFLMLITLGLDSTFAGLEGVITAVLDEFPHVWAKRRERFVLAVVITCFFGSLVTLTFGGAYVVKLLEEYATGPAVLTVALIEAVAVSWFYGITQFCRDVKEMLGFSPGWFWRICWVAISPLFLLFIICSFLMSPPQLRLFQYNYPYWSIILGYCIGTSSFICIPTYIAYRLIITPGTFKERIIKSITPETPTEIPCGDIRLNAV

Turning to `CN(C)CCCN1c2ccccc2CCc2ccccc21` [imipramine], in experiment [1] (100 nM [3H]drug, 2 h 4 °C, UV 15 min, 50–100 kDa segment), the “ultraviolet-induced crosslinking (radioactivity signal vs non-UV control)” value is “significantly higher”. The “displacement of crosslinking radioactivity signal by unlabelled inhibitor” value in experiment [1] (100 μM unlabelled inhibitor added before ultraviolet exposure) was “full displacement”. Moreover, the “ultraviolet-induced crosslinking (radioactivity signal)” value in experiment [2] is recorded as “no radioactivity signal was observed”.

(Values after PMC4838859, “Genetically encoded photocrosslinkers locate the high-affinity binding site of antidepressant drugs in the human serotonin transporter” (Nature Communications, 2016).)
